We go through 47 compounds from patent US8431704B2, “Quinoline or isoquinoline substituted P2X7 antagonists” (Janssen Pharmaceutica NV, priority 2008, dated 2013).

Protein sequences, listed by entry. Tags and fused reporters are not part of them.
UniProt Q99572, whole entry: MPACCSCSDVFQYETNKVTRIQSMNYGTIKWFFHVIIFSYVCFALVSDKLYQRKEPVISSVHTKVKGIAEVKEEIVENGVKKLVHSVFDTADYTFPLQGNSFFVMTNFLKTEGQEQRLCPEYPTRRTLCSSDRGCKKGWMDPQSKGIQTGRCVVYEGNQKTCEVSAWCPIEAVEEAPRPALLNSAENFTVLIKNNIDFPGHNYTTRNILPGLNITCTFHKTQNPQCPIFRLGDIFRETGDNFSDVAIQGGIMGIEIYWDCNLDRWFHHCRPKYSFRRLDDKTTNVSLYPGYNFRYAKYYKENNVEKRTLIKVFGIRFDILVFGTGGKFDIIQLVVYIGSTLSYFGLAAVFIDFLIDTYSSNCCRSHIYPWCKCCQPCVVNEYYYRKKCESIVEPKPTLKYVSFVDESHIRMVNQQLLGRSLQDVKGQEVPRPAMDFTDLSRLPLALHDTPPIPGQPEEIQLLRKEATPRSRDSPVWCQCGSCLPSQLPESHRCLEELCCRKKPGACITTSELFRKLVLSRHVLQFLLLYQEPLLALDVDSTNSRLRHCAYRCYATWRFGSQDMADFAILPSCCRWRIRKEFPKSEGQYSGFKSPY

For the first assay, the target named is P2X7 (Homo sapiens, UniProt Q99572). The assay can be described thus: THP-1 YoPro uptake assay (BzATP-stimulated Yo-Pro-1 uptake). Particulars: Table F-10, THP-1 cells.
Consider `O=C(NCC(c1cnc(C(F)(F)F)nc1)N1CCC(F)(F)CC1)c1c(F)ccc2ncccc12` (centres unmarked), for which the “mean pIC50 values for P2X7 antagonism” value stood at 7.84.

Consider `O=C(NCC(c1cnc(C(F)(F)F)nc1)N1CCC(F)(F)CC1)c1cccc2c(N3CCOCC3)nccc12` (centres unmarked), for which the “mean pIC50 values for P2X7 antagonism” value was 6.86. The same measure, in the same setting: the figure for `O=C(NCC(c1cnc(C(F)(F)F)nc1)N1CCC(F)(F)CC1)c1ccnc2ccccc12` (centres unmarked) is 7.25; for `O=C(NCC(c1cnc(C(F)(F)F)nc1)N1CCOCC1)c1cccc2c(N3CCOCC3)nccc12` (centres unmarked) it is 5.94. The same measure, in the same setting: to `COc1ccc2c(C(=O)NCC(c3cnc(C(F)(F)F)nc3)N3CCC(F)(F)CC3)c(Cl)ccc2n1` (centres unmarked) belongs 7.86; to `CC(C)Oc1ccc2c(C(=O)NCC(c3cnc(C(F)(F)F)nc3)N3CCC(F)(F)CC3)c(Cl)ccc2n1` (centres unmarked), 8.05; to `O=C(NCC(c1cnc(C(F)(F)F)nc1)N1CCOCC1)c1cc(N2CC(CO)C2)nc2ccccc12` (centres unmarked), 7.38.

On to `O=C(NCC(c1cnc(C(F)(F)F)nc1)N1CCOCC1)c1cccc2c(NCCO)nccc12` (centres unmarked), for which the “mean pIC50 values for P2X7 antagonism” value amounted to 6.47. On the same count and under the same terms, to `NCCCOc1ccc2c(C(=O)NCC(c3cnc(C(F)(F)F)nc3)N3CCC(F)(F)CC3)c(Cl)ccc2n1` (centres unmarked) belongs 8.20; to `O=C(NCC(c1cnc(C(F)(F)F)nc1)N1CCC(F)(F)CC1)c1c(Cl)ccc2ncccc12` (centres unmarked), 7.64.

The same assay, now with this note: Table F-10, THP-1 cells, tested form: TFA.
As to `CC(C)CCOc1ccc2c(C(=O)NCC(c3cnc(C(F)(F)F)nc3)N3CCOCC3)c(Cl)ccc2n1` (centres unmarked), the “mean pIC50 values for P2X7 antagonism” value is recorded as 7.31. `O=C(NCC(c1cnc(C(F)(F)F)nc1)N1CCOCC1)c1cc(N2CC[C@@H](O)C2)nc2ccccc12` (some centres unmarked): the “mean pIC50 values for P2X7 antagonism” value is 7.57.

Turning to `O=C(NCC(c1cnc(C(F)(F)F)nc1)N1CCOCC1)c1cc(N2CCNCC2)nc2ccccc12` (centres unmarked), the “mean pIC50 values for P2X7 antagonism” value came to 7.61. In the case of `O=C(NCC(c1cnc(C(F)(F)F)nc1)N1CCOCC1)c1cccc2cnccc12` (centres unmarked), the “mean pIC50 values for P2X7 antagonism” value turned out to be 6.62. Still for that read-out and setting: to `NC12CC1CN(c1ccc3c(C(=O)NCC(c4cnc(C(F)(F)F)nc4)N4CCOCC4)c(Cl)ccc3n1)C2` (centres unmarked) belongs 8.40; to `O=C(NCC(c1cnc(N2CCCC2)nc1)N1CCC(F)(F)CC1)c1c(Cl)ccc2ncccc12` (centres unmarked), 8.21; to `Nc1ccc2c(C(=O)NCC(c3cnc(C(F)(F)F)nc3)N3CCOCC3)c(Cl)ccc2n1` (centres unmarked), 8.14. With `CN1CCC[C@@H]1COc1ccc2c(C(=O)NCC(c3cnc(C(F)(F)F)nc3)N3CCOCC3)c(Cl)ccc2n1` (some centres unmarked), the “mean pIC50 values for P2X7 antagonism” value is 7.81. Regarding `O=C(NCC(c1cnc(C(F)(F)F)nc1)N1CCOCC1)c1c(Cl)ccc2nc(OCc3cccnc3)ccc12` (centres unmarked), the “mean pIC50 values for P2X7 antagonism” value worked out at 8.45. On the same count and under the same terms, the figure for `Cc1ccc2nc(NCCO)ccc2c1C(=O)NCC(c1cnc(C(F)(F)F)nc1)N1CCC(F)(F)CC1` (centres unmarked) is 8.43; for `O=C(NCC(c1cnc(NCCO)nc1)N1CCC(F)(F)CC1)c1c(Cl)ccc2ncccc12` (centres unmarked) it is 6.51; for `O=C(NCC(c1cnc(N2CCOCC2)nc1)N1CCC(F)(F)CC1)c1c(Cl)ccc2ncccc12` (centres unmarked) it is 7.92. On to `O=C(NCC(c1cnc(C(F)(F)F)nc1)N1CCOCC1)c1c(Cl)ccc2nc(OCCC(F)(F)F)ccc12` (centres unmarked), for which the “mean pIC50 values for P2X7 antagonism” value came to 7.31. Take `O=C(NCC(c1cnc(C(F)(F)F)nc1)N1CCOCC1)c1c(Cl)ccc2nc(NC[C@H](O)CO)ccc12` (some centres unmarked): the “mean pIC50 values for P2X7 antagonism” value is reported as 7.47.

Turning to `COc1ccc2ncccc2c1C(=O)NCC(c1cnc(C(F)(F)F)nc1)N1CCOCC1` (centres unmarked), the “mean pIC50 values for P2X7 antagonism” value is reported as 4.67. Same read-out and setting: the figure for `Cc1ccc2nc(N3CCOCC3)ccc2c1C(=O)NCC(c1cnc(C(F)(F)F)nc1)N1CCC(F)(F)CC1` (centres unmarked) is 7.88. On the same count and under the same terms, the figure for `O=C(NCC(c1cnc(C(F)(F)F)nc1)N1CCC(F)(F)CC1)c1c(Cl)ccc2nc(OC3CNC3)ccc12` (centres unmarked) is 6.63; for `Cc1ccc2nc(N3CCN(C)CC3)ccc2c1C(=O)NCC(c1cnc(C(F)(F)F)nc1)N1CCC(F)(F)CC1` (centres unmarked) it is 8.24; for `CN1CCN(c2ncc(C(CNC(=O)c3c(Cl)ccc4ncccc34)N3CCC(F)(F)CC3)cn2)CC1` (centres unmarked) it is 6.63. On the same count and under the same terms, the figure for `O=C(NCC(c1cnc(C(F)(F)F)nc1)N1CCCCC1)c1c(Cl)ccc2nc(O)ccc12` (centres unmarked) is 6.78; for `O=C(NCC(c1cnc(N2CCC2)nc1)N1CCC(F)(F)CC1)c1c(Cl)ccc2ncccc12` (centres unmarked) it is 8.65; for `O=C(NCC(c1cnc(C(F)(F)F)nc1)N1CCOCC1)c1c(Cl)ccc2nc(OCC3CCCO3)ccc12` (centres unmarked) it is 7.50. In the case of `NC(=O)C1CCN(c2ccc3c(C(=O)NCC(c4cnc(C(F)(F)F)nc4)N4CCC(F)(F)CC4)c(Cl)ccc3n2)CC1` (centres unmarked), the “mean pIC50 values for P2X7 antagonism” value was 7.59. The same measure, in the same setting: the figure for `O=C(NCC(c1cnc(C(F)(F)F)nc1)N1CCOCC1)c1c(Cl)ccc2nc(OCC3CCCC3)ccc12` (centres unmarked) is 7.60; for `Cc1ccc2nc(N3CC[C@@H](O)C3)ccc2c1C(=O)NCC(c1cnc(C(F)(F)F)nc1)N1CCC(F)(F)CC1` (some centres unmarked) it is 8.36; for `O=C1CC[C@@H](COc2ccc3c(C(=O)NCC(c4cnc(C(F)(F)F)nc4)N4CCOCC4)c(Cl)ccc3n2)N1` (some centres unmarked) it is 7.51. For `CC(C)CN1CCN(c2ncc(C(CNC(=O)c3c(Cl)ccc4ncccc34)N3CCC(F)(F)CC3)cn2)CC1` (centres unmarked), the “mean pIC50 values for P2X7 antagonism” value is reported as 7.90.

For `O=C(NCC(c1cnc(N2CCNCC2)nc1)N1CCC(F)(F)CC1)c1c(Cl)ccc2ncccc12` (centres unmarked), the “mean pIC50 values for P2X7 antagonism” value is given as 4.90. On the same count and under the same terms, to `O=C(NCC(c1cnc(N2CCCCC2)nc1)N1CCC(F)(F)CC1)c1c(Cl)ccc2ncccc12` (centres unmarked) belongs 8.36; to `O=C(NCC(c1cnc(C(F)(F)F)nc1)N1CCOCC1)c1c(Cl)ccc2nc(O)ccc12` (centres unmarked), 6.79.

A further assay concerns the target hP2X7 (Homo sapiens, UniProt Q99572). Put plainly: P2X7 antagonism: ligand-induced Ca2+ flux in 1321N1 astrocytoma cells overexpressing hP2X7. Particulars: pIC50 = -log(IC50). Background: Calcium flux is commonly read through the fluorescence of an indicator in the cells.
For the compound `O=C(NCC(c1cnc(C(F)(F)F)nc1)N1CCOCC1)c1cccc2nc(NCCO)ccc12` (centres unmarked), the “hP2RX7pIC50 (mean pIC50 values)” value is listed as 7.02. Consider `CCOCCNc1ccc2c(C(=O)NCC(c3cnc(C(F)(F)F)nc3)N3CCC(F)(F)CC3)cccc2n1` (centres unmarked), for which the “hP2RX7pIC50 (mean pIC50 values)” value worked out at 7.47. As for `O=C(NCC(c1cnc(C(F)(F)F)nc1)N1CCC(F)(F)CC1)c1cccc2nc(NCCO)ccc12` (single isomer, unassigned) [67], the “hP2RX7pIC50 (mean pIC50 values)” value was determined as 7.44. On to `CCNc1ccc2c(C(=O)NCC(c3cnc(C(F)(F)F)nc3)N3CCOCC3)cccc2n1` (centres unmarked), for which the “hP2RX7pIC50 (mean pIC50 values)” value is on record as 7.3. Turning to `Nc1ccc2c(C(=O)NCC(c3cnc(C(F)(F)F)nc3)N3CCC(F)(F)CC3)cccc2n1` (centres unmarked), the “hP2RX7pIC50 (mean pIC50 values)” value stood at 7.54. Same read-out and setting: to `CN(C)c1ccc2c(C(=O)NCC(c3cnc(C(F)(F)F)nc3)N3CCC(F)(F)CC3)cccc2n1` (centres unmarked) belongs 7.46; to `O=C(NCC(c1cnc(C(F)(F)F)nc1)N1CCC(F)(F)CC1)c1cccc2nc(N3CCCOCC3)ccc12` (centres unmarked), 7.38.
